Measured values published in paper PMC4051630, “A Comparison of Protein Kinases Inhibitor Screening Methods Using Both Enzymatic Activity and Binding Affinity Determination” (PLoS ONE, 2014).

Sequences of proteins named here, by UniProt entry; tags and fusion partners are left off. Residues count along the entry.
UniProt Q14289, 425-683 limits assumed: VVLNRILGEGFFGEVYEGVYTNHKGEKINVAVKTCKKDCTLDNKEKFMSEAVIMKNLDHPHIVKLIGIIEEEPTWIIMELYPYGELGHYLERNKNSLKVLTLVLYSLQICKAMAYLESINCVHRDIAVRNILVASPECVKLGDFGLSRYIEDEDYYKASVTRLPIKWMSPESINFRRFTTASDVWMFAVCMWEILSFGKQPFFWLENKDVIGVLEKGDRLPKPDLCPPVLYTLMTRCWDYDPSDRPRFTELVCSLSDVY
UniProt Q9Y243, 122-479: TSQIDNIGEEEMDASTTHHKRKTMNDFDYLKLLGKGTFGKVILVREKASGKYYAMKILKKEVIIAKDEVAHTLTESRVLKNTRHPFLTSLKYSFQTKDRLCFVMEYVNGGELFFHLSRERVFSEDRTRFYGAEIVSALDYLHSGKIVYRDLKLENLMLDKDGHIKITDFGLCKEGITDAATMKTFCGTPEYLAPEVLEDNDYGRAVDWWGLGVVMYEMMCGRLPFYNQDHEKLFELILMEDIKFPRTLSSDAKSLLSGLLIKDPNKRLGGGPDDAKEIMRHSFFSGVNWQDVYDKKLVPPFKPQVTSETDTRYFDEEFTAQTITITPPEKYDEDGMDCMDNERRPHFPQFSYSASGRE
UniProt Q9P286, 449-700 limits assumed: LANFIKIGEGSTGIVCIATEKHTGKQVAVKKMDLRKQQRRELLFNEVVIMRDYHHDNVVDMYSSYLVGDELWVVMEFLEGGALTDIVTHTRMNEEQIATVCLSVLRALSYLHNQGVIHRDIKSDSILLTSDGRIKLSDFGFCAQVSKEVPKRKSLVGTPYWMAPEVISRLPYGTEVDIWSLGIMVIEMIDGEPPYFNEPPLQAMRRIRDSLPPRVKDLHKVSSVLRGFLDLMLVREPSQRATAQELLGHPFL

Assays:
Test in all cases: Differential Scanning Fluorimetry (DSF) Tm shift
Assay type in all cases: binding
Details in all cases: 2 µM protein, 10 µM inhibitor, average of 3 experiments, each in duplicate
FAK2 Catalytic Domain = target: T1, FAK2 Catalytic Domain (Homo sapiens, UniProt Q14289)
T1 construct: For all of them, we expressed and purified the catalytic domain separately; His-tag; made in house; host or cells: Escherichia coli

[1] = target: SRC Catalytic Domain+SH2+SH3 (Homo sapiens, UniProt P12931)
AKT3 Catalytic Domain = AKT3 Catalytic Domain (Homo sapiens, UniProt Q9Y243); design: AKT3 (Q9Y243); CD; His-tag; made in house; host or cells: Escherichia coli
PAK7 Catalytic Domain = PAK7 Catalytic Domain (Homo sapiens, UniProt Q9P286); design: For all of them, we expressed and purified the catalytic domain separately; His-tag; made in house; host or cells: Escherichia coli
SRC Catalytic Domain = SRC Catalytic Domain (Homo sapiens, UniProt P12931); design: For all of them, we expressed and purified the catalytic domain separately; His-tag; made in house; host or cells: Escherichia coli
STK3 Catalytic Domain = target: T2, STK3 Catalytic Domain (Homo sapiens, UniProt Q13188); design: For all of them, we expressed and purified the catalytic domain separately; His-tag; made in house; host or cells: Escherichia coli
T2 sequence (Q13188 27-278 limits assumed): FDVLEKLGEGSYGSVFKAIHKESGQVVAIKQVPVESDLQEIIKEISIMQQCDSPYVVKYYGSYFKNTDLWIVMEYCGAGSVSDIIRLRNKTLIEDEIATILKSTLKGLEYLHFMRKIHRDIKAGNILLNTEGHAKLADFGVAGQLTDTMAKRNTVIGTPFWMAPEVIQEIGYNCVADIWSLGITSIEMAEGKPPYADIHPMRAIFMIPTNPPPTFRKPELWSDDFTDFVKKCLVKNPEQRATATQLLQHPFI

[2] = target: T3, STK3 Catalytic domain+SARAH (Homo sapiens, UniProt Q13188); design: for 8, we also made a longer version containing one or more additional domains; His-tag; made in house; host or cells: Escherichia coli
T3 sequence (Q13188 1-491): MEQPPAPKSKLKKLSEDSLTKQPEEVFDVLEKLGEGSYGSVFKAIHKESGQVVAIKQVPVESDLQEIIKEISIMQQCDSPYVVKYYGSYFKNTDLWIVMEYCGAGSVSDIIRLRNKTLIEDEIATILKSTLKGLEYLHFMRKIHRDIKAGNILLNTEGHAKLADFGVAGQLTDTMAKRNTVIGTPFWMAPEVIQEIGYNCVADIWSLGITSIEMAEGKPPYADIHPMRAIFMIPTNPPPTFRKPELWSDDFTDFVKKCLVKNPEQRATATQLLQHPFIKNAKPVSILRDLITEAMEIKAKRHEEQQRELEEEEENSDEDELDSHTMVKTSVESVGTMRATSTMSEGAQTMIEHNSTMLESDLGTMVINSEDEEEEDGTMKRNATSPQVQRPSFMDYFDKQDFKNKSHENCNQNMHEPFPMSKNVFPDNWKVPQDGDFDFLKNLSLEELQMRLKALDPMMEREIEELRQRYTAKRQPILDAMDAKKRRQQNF

With CO[C@@H]1[C@H](N(C)C(=O)c2ccccc2)C[C@H]2O[C@]1(C)n1c3ccccc3c3c4c(c5c6ccccc6n2c5c31)C(=O)NC4 the “Melting temperature (Tm) shift” value (FAK2 Catalytic Domain) was 3.4 degrees Celcius, the “Melting temperature (Tm) shift” value [1] was 1.1 degrees Celcius and the “Melting temperature (Tm) shift” value (AKT3 Catalytic Domain) was 0.9 degrees Celcius. The “Melting temperature (Tm) shift” value (PAK7 Catalytic Domain) was 0.5 degrees Celcius, the “Melting temperature (Tm) shift” value (SRC Catalytic Domain) was 1.2 degrees Celcius and the “Melting temperature (Tm) shift” value (STK3 Catalytic Domain) was 4.1 degrees Celcius. For the same molecule, the “Melting temperature (Tm) shift” value [2] was 6.9 degrees Celcius.
